The nature of data set [1]: dynamic light scattering: hydrodynamic diameter and zeta potential (HORIBA SZ-100). It counts as physicochemical. How it is done:
The sizes of the protein (approx. 4 nm), the KYNA, the PAH (approx. 9 nm) the BSA/KYNA (approx. 20 nm), furthermore the BSA/KYNA/PAH (approx. 100 nm) composite were determined by dynamic lights scattering measurements (DLS). The size of the composites prepared at neutral pH falling into the nanometer range ensures the crossing of the blood-brain barrier by the active ingredients (FIG. 3).
(§1) The hydrodynamic diameters, furthermore the zeta potential were determined by a HORIBA SZ-100 type dynamic light scattering measuring device. The SAXS measurements (Philips PW-1830) were applied for the investigation of the internal structure of the core and the composites. Considering that this latter method investigates the size range corresponding to the reciprocal of this scattering vector, this can not be identical with the hydrodynamic diameters given by the light scattering measurements. The diameters determined by SAXS measurements thus relate only to the size of the protein (BSA).

Data set [2] in a line: SAXS measurement of the internal structure of the core (Philips PW-1830). The class given is physicochemical. How it is done:
as §1

For the substance bovine serum albumin [BSA], in data set [1], the “DLS ζ (zeta potential)” value is on record as −1.1 mV. Also, the “size determined by dynamic light scattering measurements (DLS)” value in data set [1] (approx., neutral pH) was “approx. 4 nm”. Further, in data set [1] (dynamic light scattering), the “DLS d (hydrodynamic diameter)” value is listed as 3.8 nm. Besides, in data set [2], the “SAXS D (size of the internal structure of the core)” value amounted to 8 nm.

The values above are taken from US10857236B2, “Sustained release nanocomposite, a process for producing the same and use thereof” (SZEGEDI TUDOMÁNYEGYETEM, priority 2015, dated 2020).
